# According to article PMC10601128:
# What was measured:
# [1] = test system: PMN-MDSCs and T cells of RM1 tumor-bearing mice; assay: Immune profiling (RNA-seq, RT-qPCR, flow cytometry, immunofluorescence) of RM1 subcutaneous C57BL/J6 model
# [2] = test system: RM1 prostate cancer subcutaneous tumors; assay: RM1 subcutaneous tumor in immunocompetent C57BL/J6 mice; details: CN133 1 mg/kg i.p. twice a week, vs placebo
# [3] = test system: RM1 prostate cancer subcutaneous tumors; assay: RM1 subcutaneous tumor in immunodeficient BALB/c nude mice; details: CN133 1 mg/kg i.p. twice a week, vs placebo
# [4] = test system: xenograft prostate cancer model; details: low dose 1 mg/kg compared to high dose 5 mg/kg, nude mice; cited from earlier work
# [5] = vs placebo or single treatment, day 25
smiles,measurement,setting,value
CN(Cc1ccc(/C=C/C(=O)NO)cc1)CC12CC3CC(CC(C3)C1)C2,HGF and CCL5 expression in tumors (RNA-seq),[1]; CN133 treatment vs placebo,HGF and CCL5 downregulation significantly
same,IL-1ra expression in FACS-isolated prostate cancer cells (RT-qPCR),[1]; CN133 treatment vs placebo,markedly upregulation
same,Pro-MDSCs accumulation cytokines in FACS-isolated prostate cancer cells (RT-qPCR),[1]; CN133 treatment vs placebo,"lower levels of the Pro-MDSCs including IL6, CCL5, CCL12, and HGF"
same,Arg-1 and iNOS secretion in PMN-MDSCs (flow cytometry),"[1]; spleens, day 25","reduced immunosuppressive enzymes secretion (Arg-1, iNOS)"
same,granzyme B and perforin secretion in CD8+ T cells (flow cytometry),"[1]; spleens, day 25","markedly increased cytotoxic mediator secretion (granzyme B, perforin)"
same,CD8+ TILs in tumors (fluorescent images),"[1]; tumor tissue, day 25",slightly increased CD8 + TILs
same,CD4+ and CD8+ T cells in blood and spleen (flow cytometry),[1]; [5],mild upregulation of CD4 + and CD8 + T cells
same,PMN-MDSCs in blood and spleen (flow cytometry),[1]; [5],statistically significant decreased in the PMN-MDSCs
same,tumor growth inhibition,[2],36.5%
same,tumor growth inhibition,[3],26.8%
same,tumors volume,[4],marked reduction in tumors volume
